Results: ChEMBL document CHEMBL1140723, “Positive and negative modulation of group I metabotropic glutamate receptors” (J Med Chem, 2008)

Sequences of proteins named here, by UniProt entry; tags and fusion partners are left off.
UniProt P31424, whole entry: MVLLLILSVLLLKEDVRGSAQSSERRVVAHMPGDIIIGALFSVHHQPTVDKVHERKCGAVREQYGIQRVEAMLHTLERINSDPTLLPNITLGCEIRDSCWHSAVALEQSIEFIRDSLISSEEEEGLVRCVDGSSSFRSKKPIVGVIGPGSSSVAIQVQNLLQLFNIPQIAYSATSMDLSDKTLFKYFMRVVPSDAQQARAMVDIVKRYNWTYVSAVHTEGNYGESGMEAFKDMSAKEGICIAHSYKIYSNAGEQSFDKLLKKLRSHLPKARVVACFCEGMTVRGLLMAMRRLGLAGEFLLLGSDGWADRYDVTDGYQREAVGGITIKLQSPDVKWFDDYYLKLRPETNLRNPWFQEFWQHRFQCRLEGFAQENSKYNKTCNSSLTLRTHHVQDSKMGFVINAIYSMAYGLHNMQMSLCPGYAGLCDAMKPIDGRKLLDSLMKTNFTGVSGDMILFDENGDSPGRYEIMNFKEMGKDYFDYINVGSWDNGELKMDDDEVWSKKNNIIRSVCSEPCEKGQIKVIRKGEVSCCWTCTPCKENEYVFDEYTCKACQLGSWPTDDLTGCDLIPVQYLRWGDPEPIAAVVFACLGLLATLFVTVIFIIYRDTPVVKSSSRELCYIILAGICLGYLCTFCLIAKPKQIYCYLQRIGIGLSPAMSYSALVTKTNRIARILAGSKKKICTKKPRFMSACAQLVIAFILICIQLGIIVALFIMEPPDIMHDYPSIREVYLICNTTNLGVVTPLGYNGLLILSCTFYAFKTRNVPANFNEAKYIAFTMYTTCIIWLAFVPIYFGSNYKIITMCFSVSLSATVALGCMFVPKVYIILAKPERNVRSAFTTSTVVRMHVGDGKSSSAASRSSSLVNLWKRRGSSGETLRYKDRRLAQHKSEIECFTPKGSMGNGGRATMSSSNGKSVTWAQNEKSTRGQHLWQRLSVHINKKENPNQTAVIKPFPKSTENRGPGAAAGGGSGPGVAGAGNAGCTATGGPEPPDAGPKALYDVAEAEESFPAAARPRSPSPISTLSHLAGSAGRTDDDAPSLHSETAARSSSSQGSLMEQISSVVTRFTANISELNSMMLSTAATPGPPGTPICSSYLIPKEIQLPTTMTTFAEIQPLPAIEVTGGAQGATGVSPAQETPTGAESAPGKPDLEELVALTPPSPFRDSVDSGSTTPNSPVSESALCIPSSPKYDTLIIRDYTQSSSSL

Target: Metabotropic glutamate receptor 5 (Rattus norvegicus, UniProt P31424)
Test: Displacement of [3H]MPEP from rat mGluR5
In short: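 Membranes were washed four times in 50 mM Tris-HCl pH 8.0 and resuspended in 50 mM Tris-HCl pH 7.5. 125–250 µg protein was incubated with 5 nM [3H]MPEP and test agent (up to 10 µM), up to 5% DMSO, 60 min at RT. Nonspecific binding: 10 µM MPEP. Filtered on glass fibre filters, rinsed with ice-cold buffer, then scintillation counted.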

- IC50: 13 nM
- Ki: 12 nM
Compound: [3H]C([3H])([3H])c1cccc(C#Cc2ccccc2)n1
